Patent US10568834B2, “Delivery systems for propofol” (Yissum Research Development Company of the Hebrew …, priority 2015, dated 2020)

Tested on: defibrinated sheep blood
Details: 10 μl on TSA 5% DSB plates, up to 24 hours

Substance: Triton X100
- Blood hemolysis: causing hemolysis
